Measurements published in patent publication US20070293512A1, “Condensed Pyrimidine Deriviative and Xanthine Oxidase Inhibitor” (priority 2004, published 2007).

Sequences of proteins named here, by UniProt entry; tags and fusion partners are left off.
UniProt P80457, whole entry: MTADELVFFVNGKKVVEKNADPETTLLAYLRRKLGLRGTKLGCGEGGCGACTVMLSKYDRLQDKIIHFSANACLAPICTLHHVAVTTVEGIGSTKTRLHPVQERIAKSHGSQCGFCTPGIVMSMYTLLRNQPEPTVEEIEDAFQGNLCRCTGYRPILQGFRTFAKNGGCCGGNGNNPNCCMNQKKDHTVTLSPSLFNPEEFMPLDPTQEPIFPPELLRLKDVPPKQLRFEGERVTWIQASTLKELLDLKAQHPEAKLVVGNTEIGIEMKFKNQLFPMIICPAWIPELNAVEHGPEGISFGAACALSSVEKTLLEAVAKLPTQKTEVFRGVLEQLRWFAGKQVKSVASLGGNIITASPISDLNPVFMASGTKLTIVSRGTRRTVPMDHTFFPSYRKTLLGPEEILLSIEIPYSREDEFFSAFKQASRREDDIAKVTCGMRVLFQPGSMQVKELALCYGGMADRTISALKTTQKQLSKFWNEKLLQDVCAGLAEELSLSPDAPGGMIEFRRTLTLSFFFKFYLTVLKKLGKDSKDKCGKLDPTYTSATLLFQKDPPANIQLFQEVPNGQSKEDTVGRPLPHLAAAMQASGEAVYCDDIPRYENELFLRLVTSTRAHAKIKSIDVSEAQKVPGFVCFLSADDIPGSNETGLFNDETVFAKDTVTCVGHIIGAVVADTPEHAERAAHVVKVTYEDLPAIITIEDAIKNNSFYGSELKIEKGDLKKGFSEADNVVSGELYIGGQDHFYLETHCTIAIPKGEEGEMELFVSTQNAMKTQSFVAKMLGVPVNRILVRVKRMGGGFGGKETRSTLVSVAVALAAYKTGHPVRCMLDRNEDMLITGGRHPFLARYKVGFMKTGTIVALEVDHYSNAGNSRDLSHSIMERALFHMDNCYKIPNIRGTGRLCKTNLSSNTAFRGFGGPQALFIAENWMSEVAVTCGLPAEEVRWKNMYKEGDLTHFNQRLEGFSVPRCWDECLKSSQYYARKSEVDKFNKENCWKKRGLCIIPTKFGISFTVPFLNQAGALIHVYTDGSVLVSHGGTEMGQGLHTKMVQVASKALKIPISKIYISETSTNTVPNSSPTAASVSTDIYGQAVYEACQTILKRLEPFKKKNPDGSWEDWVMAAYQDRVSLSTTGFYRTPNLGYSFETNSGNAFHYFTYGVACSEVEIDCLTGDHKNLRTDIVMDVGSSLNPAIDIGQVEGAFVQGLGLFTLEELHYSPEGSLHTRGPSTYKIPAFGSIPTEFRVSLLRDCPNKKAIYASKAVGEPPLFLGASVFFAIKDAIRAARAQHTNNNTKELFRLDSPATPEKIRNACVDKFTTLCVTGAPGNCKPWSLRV

Target: T1, Cow milk Xanthine Oxidase (Bos taurus, UniProt P80457)
T1 construct: Cow milk Xanthine Oxidase (Roche); purchased Roche; host or cells: cow milk (natural source)
Assay: Xanthine oxidase inhibition, in vitro (oxidation of xanthine, absorbance at 290 nm)
Format: biochemical
Details: xanthine 250 μM, 50 mM phosphate buffer pH 7.5, 30° C., 10 minutes
Method: The xanthine oxidase inhibiting action (in vitro test) of the compound of the invention was confirmed by measuring inhibition of oxidation of xanthine by xanthine oxidase, as described in Example 50. As is clear from Tables 11 and 12, the compounds of the invention show excellent xanthine oxidase inhibiting action.
Pharmacological Experiment 1 (In Vitro Measuring Method)
1. Preparation of Test Sample
The test compound was dissolved in dimethylsulfoxide and diluted with 50 mM phosphate buffer (pH 7.5), to give a solution of a predetermined concentration.
125 μL of each of the solutions of the test compound having different concentrations was added to 1 mL of a solution of Xanthine (SIGMA, 250 μM) in the 50 mM phosphor buffer (pH 7.5). The mixture was then pre-incubated at 30° C. for 5 min. […] Subsequently, absorbance at OD 290 nm was measured by means of a spectrophotometer (Shimadzu UV-160A)., to obtain a inhibition ratio. The measured inhibition ration was used to obtain […]
The inhibition ratio was calculated according to the following formula: Inhibition ratio (%)=[1−(B−C)/(A−C)]×100 • A: absorbance of control • B: absorbance measured on a sample containing test compound • C: absorbance of blank (Test Results)

2-[3-Cyano-4-(4-fluorophenoxy)phenyl]-4-hydroxythiazolo[5,4-d]pyrimidine potassium salt [Example 37]
IC50: 28.2 nM
